Biological target: Lactoylglutathione lyase (Homo sapiens, UniProt Q04760)
Experiment: Inhibition of human recombinant GLO1 expressed in Escherichia coli BL21 assessed as decrease in reduced glutathione level after 1 hr by Ellman's method

The chains behind the UniProt entries cited, without tags or fusion partners. Where a name states a change or a piece, a line headed by the entry shows the natural chain unless it says otherwise.
UniProt Q04760: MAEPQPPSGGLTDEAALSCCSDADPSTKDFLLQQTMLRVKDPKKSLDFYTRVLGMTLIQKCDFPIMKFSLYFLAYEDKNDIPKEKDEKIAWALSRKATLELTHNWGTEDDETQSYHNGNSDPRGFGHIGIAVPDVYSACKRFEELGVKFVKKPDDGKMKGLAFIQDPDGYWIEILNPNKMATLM

IC50: 11 nM
SMILES: COCCCn1ccc2cc(-c3cc(-c4ccccc4)cc(=O)n3O)cnc21
